ChEMBL document CHEMBL5512685, “Discovery of a Promising CBP/p300 Degrader XYD129 for the Treatment of Acute Myeloid Leukemia” (J Med Chem, 2024)

Chains of the proteins cited; added tags and fusions are not shown.
UniProt Q09472, whole entry: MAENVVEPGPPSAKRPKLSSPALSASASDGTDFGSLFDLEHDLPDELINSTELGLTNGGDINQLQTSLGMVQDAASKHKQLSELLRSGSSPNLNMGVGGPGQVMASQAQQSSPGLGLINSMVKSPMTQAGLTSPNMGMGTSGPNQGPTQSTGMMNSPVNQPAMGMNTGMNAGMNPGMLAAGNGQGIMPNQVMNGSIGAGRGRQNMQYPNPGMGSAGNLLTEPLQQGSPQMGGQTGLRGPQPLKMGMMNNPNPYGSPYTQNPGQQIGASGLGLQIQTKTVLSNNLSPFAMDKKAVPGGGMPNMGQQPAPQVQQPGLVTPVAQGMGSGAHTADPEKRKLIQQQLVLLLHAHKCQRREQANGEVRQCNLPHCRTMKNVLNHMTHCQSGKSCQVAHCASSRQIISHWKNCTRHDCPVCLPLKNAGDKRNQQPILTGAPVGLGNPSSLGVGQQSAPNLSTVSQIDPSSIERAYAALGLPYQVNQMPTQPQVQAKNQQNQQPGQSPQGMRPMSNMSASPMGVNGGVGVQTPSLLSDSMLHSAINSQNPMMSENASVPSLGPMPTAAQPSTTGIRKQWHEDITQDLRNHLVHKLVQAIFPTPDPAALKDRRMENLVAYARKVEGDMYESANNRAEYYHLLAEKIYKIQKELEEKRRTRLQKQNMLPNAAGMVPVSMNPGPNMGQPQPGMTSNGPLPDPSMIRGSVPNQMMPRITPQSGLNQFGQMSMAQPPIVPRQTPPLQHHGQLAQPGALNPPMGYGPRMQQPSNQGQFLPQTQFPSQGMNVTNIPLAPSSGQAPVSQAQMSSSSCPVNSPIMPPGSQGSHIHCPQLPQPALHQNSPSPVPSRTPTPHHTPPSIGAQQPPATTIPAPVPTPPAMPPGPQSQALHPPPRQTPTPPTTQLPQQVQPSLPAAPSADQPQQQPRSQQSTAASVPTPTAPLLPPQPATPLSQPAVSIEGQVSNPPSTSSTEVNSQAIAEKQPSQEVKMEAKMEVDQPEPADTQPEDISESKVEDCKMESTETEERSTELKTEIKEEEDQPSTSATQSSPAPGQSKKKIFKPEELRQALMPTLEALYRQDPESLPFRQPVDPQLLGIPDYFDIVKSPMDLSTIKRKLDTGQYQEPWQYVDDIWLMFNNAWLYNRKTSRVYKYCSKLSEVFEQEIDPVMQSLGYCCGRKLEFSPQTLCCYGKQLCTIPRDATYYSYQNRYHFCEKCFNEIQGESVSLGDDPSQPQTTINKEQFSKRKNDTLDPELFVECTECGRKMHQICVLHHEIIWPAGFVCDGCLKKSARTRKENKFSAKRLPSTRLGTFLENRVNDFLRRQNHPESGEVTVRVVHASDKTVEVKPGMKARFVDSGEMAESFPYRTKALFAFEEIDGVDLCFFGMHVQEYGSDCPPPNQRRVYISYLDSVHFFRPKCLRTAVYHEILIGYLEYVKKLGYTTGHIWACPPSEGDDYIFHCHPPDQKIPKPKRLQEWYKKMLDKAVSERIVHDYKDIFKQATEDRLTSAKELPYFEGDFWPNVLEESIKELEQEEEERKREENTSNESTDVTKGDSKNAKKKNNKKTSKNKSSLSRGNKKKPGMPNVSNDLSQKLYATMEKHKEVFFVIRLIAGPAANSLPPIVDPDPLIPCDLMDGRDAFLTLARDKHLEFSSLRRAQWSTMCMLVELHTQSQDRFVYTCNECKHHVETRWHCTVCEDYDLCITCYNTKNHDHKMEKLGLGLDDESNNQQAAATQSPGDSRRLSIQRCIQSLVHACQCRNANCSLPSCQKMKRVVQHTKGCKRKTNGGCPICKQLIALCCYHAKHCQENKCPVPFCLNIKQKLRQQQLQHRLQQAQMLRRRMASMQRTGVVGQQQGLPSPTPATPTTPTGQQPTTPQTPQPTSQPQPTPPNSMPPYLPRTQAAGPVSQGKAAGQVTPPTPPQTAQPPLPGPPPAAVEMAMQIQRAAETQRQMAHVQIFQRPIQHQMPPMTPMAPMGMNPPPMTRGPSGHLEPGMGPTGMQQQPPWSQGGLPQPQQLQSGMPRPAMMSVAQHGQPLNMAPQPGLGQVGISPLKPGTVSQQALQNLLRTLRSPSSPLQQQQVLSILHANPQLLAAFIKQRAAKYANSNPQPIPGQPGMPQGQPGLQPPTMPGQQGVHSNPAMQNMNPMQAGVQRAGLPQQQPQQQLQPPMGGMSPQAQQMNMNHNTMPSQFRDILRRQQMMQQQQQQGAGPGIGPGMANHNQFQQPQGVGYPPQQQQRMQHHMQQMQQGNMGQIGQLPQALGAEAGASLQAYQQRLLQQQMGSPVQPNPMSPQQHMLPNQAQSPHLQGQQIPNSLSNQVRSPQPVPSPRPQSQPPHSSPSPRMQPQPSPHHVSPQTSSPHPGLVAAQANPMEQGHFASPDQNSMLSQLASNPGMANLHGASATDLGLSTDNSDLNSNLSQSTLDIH
UniProt Q92793, whole entry: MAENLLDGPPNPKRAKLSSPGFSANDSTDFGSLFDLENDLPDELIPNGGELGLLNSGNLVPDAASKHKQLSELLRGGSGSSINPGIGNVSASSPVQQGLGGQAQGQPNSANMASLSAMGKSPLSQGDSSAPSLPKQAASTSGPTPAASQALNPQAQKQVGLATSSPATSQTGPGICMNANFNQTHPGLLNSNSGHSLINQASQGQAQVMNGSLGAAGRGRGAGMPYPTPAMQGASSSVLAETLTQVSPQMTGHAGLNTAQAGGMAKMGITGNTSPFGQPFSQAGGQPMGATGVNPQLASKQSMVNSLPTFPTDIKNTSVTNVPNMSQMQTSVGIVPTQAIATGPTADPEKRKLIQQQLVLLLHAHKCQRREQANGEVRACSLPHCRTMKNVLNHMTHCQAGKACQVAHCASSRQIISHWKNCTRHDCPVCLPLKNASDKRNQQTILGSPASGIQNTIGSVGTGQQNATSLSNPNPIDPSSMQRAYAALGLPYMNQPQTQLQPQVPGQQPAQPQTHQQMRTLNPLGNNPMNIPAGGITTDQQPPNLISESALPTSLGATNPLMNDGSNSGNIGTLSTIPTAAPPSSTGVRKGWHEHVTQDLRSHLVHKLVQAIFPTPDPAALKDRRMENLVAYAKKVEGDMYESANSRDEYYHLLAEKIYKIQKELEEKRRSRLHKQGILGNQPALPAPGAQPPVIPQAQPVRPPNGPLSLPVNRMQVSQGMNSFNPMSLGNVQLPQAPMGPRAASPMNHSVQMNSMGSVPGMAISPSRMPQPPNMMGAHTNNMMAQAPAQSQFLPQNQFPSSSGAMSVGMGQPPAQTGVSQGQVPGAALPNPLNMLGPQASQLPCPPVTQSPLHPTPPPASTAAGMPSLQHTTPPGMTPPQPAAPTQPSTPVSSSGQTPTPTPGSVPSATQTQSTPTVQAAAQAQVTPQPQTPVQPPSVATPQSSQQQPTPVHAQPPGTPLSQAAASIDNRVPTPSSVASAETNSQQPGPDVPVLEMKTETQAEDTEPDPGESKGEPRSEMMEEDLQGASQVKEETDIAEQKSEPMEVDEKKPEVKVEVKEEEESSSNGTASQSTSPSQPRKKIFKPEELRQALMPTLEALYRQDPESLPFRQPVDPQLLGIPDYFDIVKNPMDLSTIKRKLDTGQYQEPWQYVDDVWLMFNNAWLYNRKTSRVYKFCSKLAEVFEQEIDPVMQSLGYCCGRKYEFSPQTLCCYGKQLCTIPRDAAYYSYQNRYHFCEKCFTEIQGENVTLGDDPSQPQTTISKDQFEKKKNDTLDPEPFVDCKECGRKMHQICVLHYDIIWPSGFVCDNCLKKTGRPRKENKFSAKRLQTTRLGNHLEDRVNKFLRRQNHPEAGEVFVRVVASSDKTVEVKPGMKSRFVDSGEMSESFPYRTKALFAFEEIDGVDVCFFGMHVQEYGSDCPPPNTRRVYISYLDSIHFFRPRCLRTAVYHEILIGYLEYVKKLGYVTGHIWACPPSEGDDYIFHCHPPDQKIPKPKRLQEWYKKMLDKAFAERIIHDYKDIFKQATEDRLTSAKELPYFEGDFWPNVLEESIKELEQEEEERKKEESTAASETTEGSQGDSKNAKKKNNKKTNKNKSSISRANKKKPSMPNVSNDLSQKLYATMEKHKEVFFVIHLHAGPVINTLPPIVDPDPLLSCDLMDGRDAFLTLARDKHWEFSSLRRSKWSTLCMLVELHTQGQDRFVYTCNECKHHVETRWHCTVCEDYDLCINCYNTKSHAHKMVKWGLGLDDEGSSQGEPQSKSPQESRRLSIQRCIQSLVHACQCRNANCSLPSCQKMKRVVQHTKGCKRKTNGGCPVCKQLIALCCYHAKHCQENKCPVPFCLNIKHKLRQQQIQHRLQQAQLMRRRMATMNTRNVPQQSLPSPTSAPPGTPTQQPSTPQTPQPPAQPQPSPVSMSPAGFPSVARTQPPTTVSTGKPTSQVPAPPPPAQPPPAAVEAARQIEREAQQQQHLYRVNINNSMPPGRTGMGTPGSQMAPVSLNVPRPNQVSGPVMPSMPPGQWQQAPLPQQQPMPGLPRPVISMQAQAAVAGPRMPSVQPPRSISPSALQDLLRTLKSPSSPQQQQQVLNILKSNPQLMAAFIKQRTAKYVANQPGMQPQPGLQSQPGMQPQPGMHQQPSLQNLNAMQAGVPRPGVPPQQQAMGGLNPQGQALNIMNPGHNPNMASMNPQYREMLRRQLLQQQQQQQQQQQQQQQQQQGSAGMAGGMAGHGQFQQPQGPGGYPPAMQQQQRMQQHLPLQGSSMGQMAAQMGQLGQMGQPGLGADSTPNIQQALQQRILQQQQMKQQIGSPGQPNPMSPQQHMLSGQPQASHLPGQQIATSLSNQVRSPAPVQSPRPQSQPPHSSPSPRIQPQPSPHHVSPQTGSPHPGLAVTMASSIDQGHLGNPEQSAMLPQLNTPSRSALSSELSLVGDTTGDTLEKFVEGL

Assays:
[1] = target: Histone acetyltransferase p300 (Homo sapiens, UniProt Q09472); test: Inhibition of C-terminal biotinylated tetra-acetylated histone peptide H4 binding to His6-fused human p300 bromodomain (A1040 to G1161 residues) incubated for 1 hrs by HTRF assay
CREB-binding protein = CREB-binding protein (Homo sapiens, UniProt Q92793); test: Inhibition of C-terminal biotinylated tetra-acetylated histone peptide H4 binding to His6-fused human CBP bromodomain (R1081 to G1197 residues) incubated for 1 hrs by HTRF assay

IC50 [1]: 5 nM
IC50 (CREB-binding protein): 3 nM
SMILES: CO[C@H]1CC[C@H](n2c([C@@H]3CCCC(=O)N3c3ccc(F)c(F)c3)nc3cc(-c4c(C)noc4C)ccc32)CC1 [INOBRODIB]
